Experimental data as given in patent US20230331817A1 (The Regents of the University of California, priority 2020, published 2023).

Assays:
[1] = system: primary human dermal skin fibroblasts; conditions: 24 hours; 30 μM KD1TM, 30 μM BPTI, 60 mM EACA, 30 mM TXA
HUVEC = conditions: 24 hours; 30 μM KD1TM, 30 μM BPTI, 60 mM EACA, 30 mM TXA

With `NC[C@H]1CC[C@H](C(=O)O)CC1` [TXA, tranexamic acid] the “Fibroblasts cytotoxicity, CellTox green (FIG. 8)” value [1] was “induced toxicity” and the “HUVEC cytotoxicity, CellTox green (FIG. 7)” value (HUVEC) was “induced toxicity”.
